Test results reported in patent publication US6331565A, “Dicaffeoylquinic acid for treating hepatitis B and the diseases associated with retrovirus, and the new caffeoylquinic acid derivatives” (Institute of Radiation Medicine Academy of Military Medical …, priority 1996, dated 2001).

Test system: HIV-1
Experiment: Viable cells of HIV-infected MT4 cells (MTT)
Assay type: cell-based, HIV-1 in human MT4 cells
Procedure: A human T-cell leukemia cell line. MT4 cells, was used in this study. It was maintained in RPMI-1640 medium supplemented with 10% FCS. 100 U/ml of penicillin, and 100 μg/ml of streptomycin at 37° C. in a humidified atmosphere of 5% CO2. Cell cultures were split into fresh medium every 4 days.
HIV-1 virus was propagated in MT4 cells. The cell-free supernatants of HIV-1 infected MT4 cell culture were used as virus stocks and frozen at -80° C. until used. The 50% tissue culture infected dose (TCID50) of the cell-free virus stock was determined by end-point titration with MT4 cells in 96-well microdilution plates.
After 4 h, 100 μl of solvent (10% Triton X-100 and 0.4% HCl isopropanol)was added to cultures to solubilizes formazan. After an overnight incubation, the absorbency of each well was measured using a microplate reader (Bio-Rad, model 450) at 560 nm.
MT4 cells in culture were counted by trypan blue exclusion method. The MT4 cells suspended in a small volume of RPMI-1640 medium without FCS and infected with HIV-1 at 200 TCID50 viruses per 10^6 cells. The mixture of MT4 cells and virus was subsequently incubated at 37° C. in a humidified atmosphere of 5% CO2 for 1 hr to allow virus to adsorbed to cells. […]
After 7-day incubation the viable cells was evaluated by MTT method as described above.

O=C(/C=C/c1ccc(O)c(O)c1)OC1CC(OC(=O)/C=C/c2ccc(O)c(O)c2)(C(=O)O)CC(O)C1O (stereo not shown) [Compound A, 1,5-di-O-caffeoylquinic acid] was tested, and the “amounts of viable cells” value was “increased the amounts of viable cells dose-dependently; also recorded: increase the amounts of viable cells”.

Entries after “also recorded” stand apart in the source; their conditions may differ.
